Literature values as cited in patent publication US20040029953A1, “Use of neuropeptide-y antagonists in treatment of alcoholism” (priority 2000, published 2004).

By UniProt entry, the sequences of proteins in these tests, tags left out. Where a name states a change or a piece, a line headed by the entry shows the natural chain unless it says otherwise.
UniProt P49146, whole entry: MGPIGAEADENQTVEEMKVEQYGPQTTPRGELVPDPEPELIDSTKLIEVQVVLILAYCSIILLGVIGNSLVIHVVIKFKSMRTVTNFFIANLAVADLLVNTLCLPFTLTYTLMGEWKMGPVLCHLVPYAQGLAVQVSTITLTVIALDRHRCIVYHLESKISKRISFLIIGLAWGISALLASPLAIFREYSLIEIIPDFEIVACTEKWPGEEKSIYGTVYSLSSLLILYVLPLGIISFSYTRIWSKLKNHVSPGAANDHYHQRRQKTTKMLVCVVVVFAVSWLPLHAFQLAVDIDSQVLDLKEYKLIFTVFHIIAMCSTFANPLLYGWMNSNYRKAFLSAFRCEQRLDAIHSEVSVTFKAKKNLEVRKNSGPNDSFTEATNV
UniProt P50391: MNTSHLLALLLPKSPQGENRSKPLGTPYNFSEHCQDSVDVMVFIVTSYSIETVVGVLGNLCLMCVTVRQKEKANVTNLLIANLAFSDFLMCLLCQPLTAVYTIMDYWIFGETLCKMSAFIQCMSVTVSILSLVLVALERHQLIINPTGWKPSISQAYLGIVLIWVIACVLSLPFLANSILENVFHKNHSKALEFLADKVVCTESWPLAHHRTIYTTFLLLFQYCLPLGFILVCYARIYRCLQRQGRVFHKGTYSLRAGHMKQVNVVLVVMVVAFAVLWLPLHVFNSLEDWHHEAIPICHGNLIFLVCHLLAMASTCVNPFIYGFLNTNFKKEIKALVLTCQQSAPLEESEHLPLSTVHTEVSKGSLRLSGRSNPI
UniProt P25929, whole entry: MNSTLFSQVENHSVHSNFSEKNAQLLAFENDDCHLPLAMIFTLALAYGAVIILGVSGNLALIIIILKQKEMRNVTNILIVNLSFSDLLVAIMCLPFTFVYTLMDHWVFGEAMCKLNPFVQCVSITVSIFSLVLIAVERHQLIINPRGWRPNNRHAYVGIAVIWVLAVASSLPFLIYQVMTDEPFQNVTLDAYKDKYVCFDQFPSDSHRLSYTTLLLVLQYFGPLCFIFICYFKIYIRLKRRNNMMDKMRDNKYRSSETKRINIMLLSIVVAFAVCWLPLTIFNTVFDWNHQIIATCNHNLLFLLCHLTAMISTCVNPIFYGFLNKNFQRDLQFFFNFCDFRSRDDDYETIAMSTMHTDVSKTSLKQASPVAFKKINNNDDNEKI

Legend:
Details in all cases: cited from earlier work
Y2 receptors = Y2 receptors (Homo sapiens, UniProt P49146)
Y4 receptors = Y4 receptors (Homo sapiens, UniProt P50391)
Y5 receptors = target: T1, Y5 receptors (Homo sapiens, UniProt Q15761)
T1 sequence (Q15761 1-445): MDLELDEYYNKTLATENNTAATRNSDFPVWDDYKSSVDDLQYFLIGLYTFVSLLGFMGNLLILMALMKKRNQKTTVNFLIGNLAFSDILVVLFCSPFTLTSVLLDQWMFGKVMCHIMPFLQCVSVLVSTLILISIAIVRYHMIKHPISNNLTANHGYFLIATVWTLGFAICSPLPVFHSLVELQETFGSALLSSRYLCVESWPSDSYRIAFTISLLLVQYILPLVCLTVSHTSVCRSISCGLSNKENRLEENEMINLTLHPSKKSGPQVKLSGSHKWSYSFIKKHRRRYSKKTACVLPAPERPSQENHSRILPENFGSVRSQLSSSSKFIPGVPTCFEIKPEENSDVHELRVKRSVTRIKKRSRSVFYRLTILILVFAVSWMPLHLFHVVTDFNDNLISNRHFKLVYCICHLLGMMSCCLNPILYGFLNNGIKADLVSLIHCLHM

Y1 receptor = Y1 receptor (Homo sapiens, UniProt P25929)

[D-Tyr^27,36,D-Thr^32] Neuropeptide Y (27-36) [D-NPY]
binds with antagonistic properties: affinity for Y2 receptors (Y2 receptors) | affinity for Y4 receptors (Y4 receptors) | affinity for Y5 receptors (Y5 receptors) | affinity for the Y1 receptor subtype (Y1 receptor)
